From patent US7399744B2, “Methods for affecting body composition” (Amylin Pharmaceuticals, Inc., priority 2004, dated 2008)

Tests used:
[1] = Solubility and stability compared to human amylin; format: physicochemical
[2] = Amylin versus pramlintide in DIO Levin rats (Example 5); format: in vivo, rat; conditions: 76 nmol/kg/day by osmotic mini-pump for 24 days
amylin receptors = biological target: T1, amylin receptors (Rattus norvegicus, UniProt P32214+Q9JJ74); assay: Receptor binding assay (competition with 125I Bolton Hunter rat amylin, basal forebrain membranes)
T1 construct: This basal forebrain tissue, containing the nucleus accumbens and surrounding regions, was weighed and homogenized; from tissue; host or cells: rat basal forebrain (nucleus accumbens and surrounding regions) membranes
T1 sequence (P32214 25-516): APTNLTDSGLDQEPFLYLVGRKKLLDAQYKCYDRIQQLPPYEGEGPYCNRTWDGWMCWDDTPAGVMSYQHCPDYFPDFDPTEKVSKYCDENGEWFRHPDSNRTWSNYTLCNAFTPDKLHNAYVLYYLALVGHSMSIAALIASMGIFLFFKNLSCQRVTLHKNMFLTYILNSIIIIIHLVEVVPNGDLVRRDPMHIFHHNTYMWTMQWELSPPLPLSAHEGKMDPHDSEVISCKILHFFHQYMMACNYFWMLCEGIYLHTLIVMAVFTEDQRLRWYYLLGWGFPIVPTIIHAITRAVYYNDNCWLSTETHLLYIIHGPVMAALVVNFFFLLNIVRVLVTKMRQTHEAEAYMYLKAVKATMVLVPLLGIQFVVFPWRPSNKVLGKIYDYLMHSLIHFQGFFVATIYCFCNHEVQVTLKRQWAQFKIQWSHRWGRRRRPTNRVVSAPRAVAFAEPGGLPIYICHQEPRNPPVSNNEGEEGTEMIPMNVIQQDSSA
T1 sequence (Q9JJ74 27-148): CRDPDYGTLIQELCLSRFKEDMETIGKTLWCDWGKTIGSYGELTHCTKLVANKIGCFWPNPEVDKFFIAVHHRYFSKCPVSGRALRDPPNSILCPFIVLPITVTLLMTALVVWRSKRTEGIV

[3] = system: insulin-stimulated glycogen synthesis in soleus muscle; assay: Soleus muscle assay; format: cell-based, rat
[4] = Adsorption onto glass container in liquid form; format: physicochemical

For CC[C@H](C)[C@H](NC(=O)[C@@H]1CCCN1C(=O)CNC(=O)[C@H](Cc1ccccc1)NC(=O)[C@H](CC(N)=O)NC(=O)[C@H](CC(N)=O)NC(=O)[C@H](CO)NC(=O)[C@H](CO)NC(=O)[C@H](Cc1c[nH]cn1)NC(=O)[C@@H](NC(=O)[C@H](CC(C)C)NC(=O)[C@H](Cc1ccccc1)NC(=O)[C@H](CC(N)=O)NC(=O)[C@H](C)NC(=O)[C@H](CC(C)C)NC(=O)[C@H](CCCNC(=N)N)NC(=O)[C@H](CCC(N)=O)NC(=O)[C@@H](NC(=O)[C@H](C)NC(=O)[C@@H]1CSSC[C@H](NC(=O)[C@@H](N)CCCCN)C(=O)N[C@@H](CC(N)=O)C(=O)N[C@@H]([C@@H](C)O)C(=O)N[C@@H](C)C(=O)N[C@@H]([C@@H](C)O)C(=O)N1)[C@@H](C)O)C(C)C)C(=O)N[C@@H](CC(C)C)C(=O)N1CCC[C@H]1C(=O)N1CCC[C@H]1C(=O)N[C@H](C(=O)N[C@@H](CC(N)=O)C(=O)N[C@H](C(=O)NCC(=O)N[C@@H](CO)C(=O)N[C@@H](CC(N)=O)C(=O)N[C@H](C(=O)N[C@@H](Cc1ccc(O)cc1)C(N)=O)[C@@H](C)O)C(C)C)[C@@H](C)O [^25,28,29Pro-h-Amylin], the “solubility and stability characteristics when compared to human amylin” value [1] was “more desirable”, the “slowing body weight gain” value [2] was “significant effect” and the “effects on body composition” value ([2]; rodent NMR) was “favorable effects”. For the same molecule, the “compete with amylin in the receptor binding assay” value (amylin receptors) was “compete with amylin”, the IC50 (amylin receptors; read-out: Receptor Binding) was 0.01 nM and the “amylin agonist action in the soleus muscle assay” value [3] was “act as amylin agonists”. For the same molecule, the “antagonist activity as measured by the soleus muscle assay” value [3] was “negligible”, the EC50 ([3]; rat soleus muscle, […] insulin, inhibition of glucose incorporation into glycogen) was 3.71 nM and the “tendency to adsorb onto the glass in a glass container” value [4] was “does not have a tendency to adsorb onto the glass”.
